Ab-14 light chain CDR variants: yeast mating affinities

Reference: Li et al. 2023, doi:10.1038/s41467-023-39022-2. File: FLAb, binding data.

Antigen: PDVDLGDISGINAS, a 14-residue peptide of the SARS-CoV-2 spike HR2 region.

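The starting antibody came from a phage panning campaign against this peptide. This is the validation round: designs drawn from the data on random variants, tested in the same kind of assay. Group labels follow the data file (En: ensemble of fine-tuned language models; GP: Gaussian process model; HC: hill climbing; Gen: genetic algorithm; Gibbs: Gibbs sampling; a sequence that several methods proposed may carry one label only). The scFvs were displayed on barcoded MATa yeast, the peptide on MATalpha yeast. Pairs that bind mate more often; barcode pairs of the diploids are counted by sequencing. Read counts were normalised to the haploid input and turned into Kd by a linear fit to BCL2-family pairs of known affinity, for each replicate. Mating was done six times.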

Each scFv is VH, a (GGGGS)3 linker, VL, as in the parent Ab-14, and differs from it in the CDRs of the light chain only.
VH: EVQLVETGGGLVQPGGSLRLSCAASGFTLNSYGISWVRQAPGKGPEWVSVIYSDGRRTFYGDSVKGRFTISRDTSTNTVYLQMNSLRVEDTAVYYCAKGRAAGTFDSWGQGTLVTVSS
VL: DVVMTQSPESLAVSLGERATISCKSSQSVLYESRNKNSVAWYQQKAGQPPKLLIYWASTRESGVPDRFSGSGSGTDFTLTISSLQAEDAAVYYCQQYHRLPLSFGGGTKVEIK

Variants are written as CDR1, CDR2 and CDR3 of the light chain (limits as in the source). Parent: KSSQSVLYESRNKNSVA, WASTRES, QQYHRLPLS. This list holds designs with more than six substitutions. Each Kd is an estimate from the mating assay, the geometric mean of the replicates in which the pair was seen; lower is stronger. An entry "nd" has no value in the source: the pair was not observed among the diploids in any replicate. This suggests poor binding but is not conclusive.

For KFSQLVLYEERMKNSVA, DASQRLS, QQYHRLPLS [GP_Gibbs], the assay gave 1.1 nM (6 of 6 replicates).
For KFAEQIMHVYQGANAIA, DATVKSA, QQYLRLPLM [En_Gibbs], the assay gave 1.7 nM (6 of 6 replicates).
For KSSISSLYEDRNDNSVA, NASQREH, QQYHRLPLS [GP_Gibbs], the assay gave 2.0 nM (6 of 6 replicates).
For HISYSMAHLSRNKNSVA, NQQTREQ, QQYHRLPLS [En_HC], the assay gave 32 nM (6 of 6 replicates).
For QVFFNLFEQGMRSQPIA, GTSMRET, QQYARLPLI [En_Gibbs], the assay gave 13 nM (6 of 6 replicates).
For KFNMEVQGQNNNKYNIA, AAHQLEY, QTYYRLPLV [En_Gibbs], the assay gave 25 nM (6 of 6 replicates).
For KLQSLEQYESRWKNNVA, SASTRES, QQYHRLPLS [GP_Gibbs], the assay gave 1.8 nM (6 of 6 replicates).
For ILMQVYKEPGAAVNNIA, DGSIRLQ, QQYHRLPLV [En_Gibbs], the assay gave 5.2 nM (6 of 6 replicates).
For IISQLMIWGYHAKNSIA, EAQTRDN, QQYDRLPLF [En_Gen], the assay gave 1.3 nM (6 of 6 replicates).
For KLSCSQEYWSRNTNSVA, GASTRES, QQYHRLPLS [GP_Gibbs], the assay gave 620 pM (6 of 6 replicates).
For KVSMSVEMQQRNPNSVA, SASTRLS, QQYHRLPLS [GP_Gibbs], the assay gave 380 pM (6 of 6 replicates).
For SMQLDQIEGNQQQNSIA, GESEADM, QHYARLPLT [En_Gibbs], the assay gave nd (0 of 6 replicates).
For KLLQEVTGHSRNKYSVA, HNSTRED, QQYDRLPLS [En_HC], the assay gave 1.1 µM (1 of 6 replicates).
For MIAQGLRGVGRNKNSVA, NAQTRVS, QHYHRLPLS [En_HC], the assay gave 79 nM (1 of 6 replicates).
For KVMYFNEQVSLKGSNVA, DNETREQ, QQYFRLPLS [En_Gen], the assay gave 1.8 nM (6 of 6 replicates).
For MLSDTVMQGSYYRNSVA, QESTRAD, QQYHHLPLS [En_HC], the assay gave 4.1 nM (6 of 6 replicates).
For HITYGMYVAGRHSSSIA, QAETRAK, QQYDRLPLM [En_Gen], the assay gave 9.1 nM (6 of 6 replicates).
For KLSQADWYGSRNKNSVA, EASLRES, QQYHRLPLS [GP_Gibbs], the assay gave 4.8 nM (6 of 6 replicates).
For KNDPSHLGESRNKNAVA, QASTREE, QQYHRLPLS [GP_Gibbs], the assay gave 1.5 nM (6 of 6 replicates).
For KISSLTLYESVNKNSIA, EMSTRPS, QSYHRLPLS [En_HC], the assay gave 2.4 nM (6 of 6 replicates).
For TISQSMLYLSNMKNSVA, QAETRES, QQYHRLPIS [En_HC], the assay gave 680 nM (3 of 6 replicates).
For KIGQMVTGESLNKNSIA, QMTTREG, QQYHRLPLS [En_HC], the assay gave 5.7 nM (6 of 6 replicates).
For QLSGPMLSESKKKNNVA, EFSTRGS, QQYHRLPLS [En_HC], the assay gave 12 nM (1 of 6 replicates).
For KLSQVTNSEHRNKNSIA, EMVTREK, QQYDRLPLS [En_HC], the assay gave 4.6 nM (6 of 6 replicates).
For KSSFSQDYEDRNKNSVA, SATQRES, QQYHRLPLS [GP_Gibbs], the assay gave 540 pM (6 of 6 replicates).
For KLGGMTAIESRNNNSVA, QMDTRES, QQYDRLPLS [En_HC], the assay gave 9.2 nM (6 of 6 replicates).
For NVGQMMDGETRNRNNVA, HQSTRED, QHYHRLPLS [En_HC], the assay gave 1.3 nM (6 of 6 replicates).
For SISGFMKSLAAHNNSVA, DMTNRED, QQYDRLPLS [En_Gen], the assay gave 21 nM (6 of 6 replicates).
For MFSQTVMYESTMRNNVA, QTSTRES, QQYDHLPLS [En_HC], the assay gave 40 nM (2 of 6 replicates).
For MISQSFLIGMKAKNSVA, QTNTRFE, QQYDRLPLI [En_HC], the assay gave 45 nM (5 of 6 replicates).
For KIQPHLSQSFASKNNVA, DRQLSAE, QQYNRLPLV [En_Gibbs], the assay gave 5.2 nM (6 of 6 replicates).
For KCEISVMQWERNKNSVA, NASTREV, QQYHRLPLS [GP_Gibbs], the assay gave 9.9 nM (3 of 6 replicates).
For FMGGTKTMQSNEIGNIA, DMNERFA, QQYFQLPLS [En_Gibbs], the assay gave 2.9 nM (6 of 6 replicates).
For KQQQSVGGMQRNKNSVA, EASTREM, QQYHRLPLS [GP_Gibbs], the assay gave 1.6 nM (6 of 6 replicates).
For KLSQVTGHLSVEKNNVA, EMETREN, QQYDRLPLA [En_Gen], the assay gave 8.5 nM (6 of 6 replicates).
For KLRQSCEYEDRNKNNVA, MASQRCS, QQYHRLPLS [GP_Gibbs], the assay gave 1.8 nM (6 of 6 replicates).
For NIYQAMHTLMQARNNVA, DVTERND, QQYFRLPLS [En_Gen], the assay gave 2.3 nM (6 of 6 replicates).
For MLSQVMHMAGAKKNSIA, DLVMRAN, QQYHRLPLS [En_Gen], the assay gave 90 nM (6 of 6 replicates).
For KLESLMGESYFEKENIA, EGEQRFS, QQYHRLPLH [En_Gibbs], the assay gave 55 nM (6 of 6 replicates).
For SLYEAMQTGGLRTSNIA, DVNQQMR, QHYMRLPLA [En_Gibbs], the assay gave 6.2 nM (6 of 6 replicates).
For KLMISVEYESRNQNSVA, SASYRLD, QQYHRLPLS [GP_Gibbs], the assay gave 3.4 nM (6 of 6 replicates).
For KLQQSNLYESRNKNNVA, EATQREQ, QQYHRLPLS [GP_Gibbs], the assay gave 490 pM (6 of 6 replicates).

For reference, 5 entries of the list once more:

CDR-L1	CDR-L2	CDR-L3	group	Kd	seen in
KVMYFNEQVSLKGSNVA	DNETREQ	QQYFRLPLS	En_Gen	1.8 nM	6 of 6
KIGQMVTGESLNKNSIA	QMTTREG	QQYHRLPLS	En_HC	5.7 nM	6 of 6
SISGFMKSLAAHNNSVA	DMTNRED	QQYDRLPLS	En_Gen	21 nM	6 of 6
NIYQAMHTLMQARNNVA	DVTERND	QQYFRLPLS	En_Gen	2.3 nM	6 of 6
KFSQLVLYEERMKNSVA	DASQRLS	QQYHRLPLS	GP_Gibbs	1.1 nM	6 of 6

As a blank, each scFv also met three strains without target: over all light chain designs, 4% of these pairings were detected, typically at 430 nM and seldom below 38 nM. Of ten entries with the parent sequence, four were seen in most replicates (averages 2.2 nM to 240 nM), three in one and three in none, so single entries are noisy. The authors averaged sequences with at least three values out of six and counted those with two or fewer as poor binders. A sequence measured in both rounds can read differently, since the two assays cover different ranges.